The values below come from ChEMBL document CHEMBL1131617 (J Med Chem, 1998).

Sequences of proteins named here, by UniProt entry; tags and fusion partners are left off.
UniProt P33535, whole entry: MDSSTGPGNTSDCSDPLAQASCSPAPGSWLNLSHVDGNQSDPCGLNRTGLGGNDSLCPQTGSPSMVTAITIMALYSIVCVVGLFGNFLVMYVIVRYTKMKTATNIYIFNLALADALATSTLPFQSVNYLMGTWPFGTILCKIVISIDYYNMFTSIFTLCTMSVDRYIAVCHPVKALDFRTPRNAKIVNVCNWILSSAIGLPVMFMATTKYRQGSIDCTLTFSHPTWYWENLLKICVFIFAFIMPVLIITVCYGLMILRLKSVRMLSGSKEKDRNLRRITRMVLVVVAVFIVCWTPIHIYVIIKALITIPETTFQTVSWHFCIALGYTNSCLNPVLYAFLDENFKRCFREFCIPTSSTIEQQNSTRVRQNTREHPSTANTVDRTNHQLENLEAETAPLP

This assay addresses Mu-type opioid receptor (Rattus norvegicus, UniProt P33535). Description: Relative affinity against Opioid receptor mu 1 in thalamus using [3H]DAMGO as radioligand. It counts as tissue-based.

Structures are written as SMILES.

A word on the IC50: it is the concentration needed to halve the response being measured. A low value points to higher potency. `CC[C@H]1C[C@@H]2C[C@H]3c4[nH]c5ccc(OC)cc5c4CCN(C2)[C@@H]13` [IBOGAINE] yielded a half-inhibitory concentration (IC50) of 3.76 µM.
